Assay results: paper PMC7240701 (Journal of medicinal chemistry, 2019)

By UniProt entry, the sequences of proteins in these tests, tags left out. Residues count along the entry.
UniProt P07711, 114-333: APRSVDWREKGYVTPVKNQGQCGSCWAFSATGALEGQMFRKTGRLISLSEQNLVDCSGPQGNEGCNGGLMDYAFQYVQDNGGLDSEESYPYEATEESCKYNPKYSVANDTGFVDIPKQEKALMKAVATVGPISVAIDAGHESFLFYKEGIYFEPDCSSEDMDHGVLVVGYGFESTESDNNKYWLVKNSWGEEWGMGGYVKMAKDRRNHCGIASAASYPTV

Target: Cathepsin L (Homo sapiens, UniProt P07711)
Assay: Cathepsin L kinetic assay

CC[C@H](C)[C@@H](C(=O)O[C@@H](CC(C)C)C(=O)N[C@@H](CC(C)C)C(=O)N[C@H](/C=C/C(=O)N1C(=O)C=C(OC)[C@@H]1CC(C)C)Cc1ccccc1)N(C)C [compound 10, (S)-1-(((S)-1-(((S,E)-5-((S)-2-Isobutyl-3-methoxy-5-oxo-2,5-dihydro-1H-pyrrol-1-yl)-5-oxo-1-phenylpent-3-en-2-yl)amino)-4-methyl-1-oxopentan-2-yl)amino)-4-methyl-1-oxopentan-2-yl dimethyl-L-isoleucinate]
kinact/KI: 8.73e+06 M⁻¹ s⁻¹
